What follows are compounds tested on female CD-1 mice (assay: Mouse ear vesicant model (MEVM), edema of ear punches). Conditions: CEES is the inflammatory inducer; test compound 1 to 2 micromoles topical; six hours after exposure.

Question: With `COc1cc(CN(O)C(=O)Oc2ccccc2)ccc1O` [Compound 4g, Phenyl-N-hydroxy(4-hydroxy-3-methoxybenzyl)carbamate] as the compound, how does the “percent suppression of inflammatory edema weight gain in ear punches” value (“percent suppression” below) read?
Answer: 43%

Question: For `CCCCCCCCOC(=O)N(O)Cc1ccc(O)c(OC)c1` [Compound 4c, Octyl-N-hydroxy(4-hydroxy-3-methoxybenzyl)carbamate], which “percent suppression” value is on record?
Answer: 69%

Question: For `COCCOC(=O)N(O)Cc1ccc(O)c(OC)c1`, which “percent suppression” value is on record?
Answer: 80%

Same assay, conditions: TPA is the initiator; test compound 1 to 2 micromoles topical; six hours after exposure

Question: `CCCCCCCC/C=C\CCCCCCCC(=O)N(O)Cc1ccc(O)c(OC)c1` [Compound 5a, (9Z)—N-Hydroxy-N-[(4-hydroxy-3-methoxyphenyl)methyl]-9-Octadecenamide] was tested. Which “percent suppression” value did it give?
Answer: 64%

Question: With `CCCCCCCCN(O)C(=O)Cc1ccc(O)c(OC)c1` [Compound 10b, N-octyl-N-hydroxy-2-(4-hydroxy-3-methoxyphenyl)acetamide] as the compound, how does the “percent suppression” value read?
Answer: 49%

Question: For `CCCCCCCN(O)C(=O)Cc1ccc(O)c(OC)c1` [Compound 10a, N-heptyl-N-hydroxy-2-(4-hydroxy-3-methoxyphenyl)acetamide], which “percent suppression” value is on record?
Answer: 50%

Reference: patent US9422233B2 (priority 2011, dated 2016)
